Laboratory results as given in patent US20240382463A1, “Composition Comprising HDAC Inhibitor and Immune Checkpoin Inhibitor and Methods For Using the Same” (Avstera Therapeutics Corp., priority 2023, published 2024).

What was measured:
[1] = test system: murine bone marrow-derived macrophages (BMDM); conditions: FACs
SM1 melanoma tumors = assay: SM1 melanoma model, in vivo tumor growth; set-up: species or system C57BL/6 mice
Experimental: In vivo tumor growth: Analysis of tumor growth using the murine SM1 melanoma model were performed in accordance with IACUC guidelines at Georgetown University. Murine melanoma tumors were established by implanting 0.75×10^6 SM1 cells in the right flank area of 6-8 weeks-old female C57BL/6 mice. When the tumors were palpable (5×5 mm), mice were randomized into treatment groups, and AVS100 and vehicle control were administered by oral gavage daily in a suspension containing PEG-6000, Microcrystalline Cellulose, Corn Starch, Silicon Dioxide, Magnesium Stearate and Sterile water. Anti-PD1 or isotype control (BE0146-CUST and BE0089-CUST, Bio X cell) were injected i.p. […] The body weights of animals were recorded once a week using a portable scale to monitor general health. […] The mapping and quantification of the T-cell repertoire was provided by the Azenta bioinformatics pipeline, which mapped the reads to the appropriate V(D)J genes. The clones that were identified were ranked (in decreasing order) by frequency, and the Pielou index was calculated for each condition and replicate as follows: […]

O=C(NCCc1cc(C(=O)NO)no1)c1ccc(Cl)c(Cl)c1 [AVS100, 5-(2-(3,4-dichlorobenzamido)ethyl)-N-hydroxyisoxazole-3-carboxamide]
generation of CD80hi F4/80+ CD11b+ M1 macrophages [1]: normal generation
generation of CD206hi F4/80+ CD11b+ M2 macrophages [1]: complete blockade
M1/M2 ratio of TAMs (SM1 melanoma tumors; CD80 / CD206, FACs): significant increase
CD8/CD4 ratio (SM1 melanoma tumors; in control as well as in anti-PD1 groups): significant increase
